The text below walks through data of patent US11331020B2 (TRUSTEES OF BOSTON UNIVERSITY, priority 2020, dated 2022).

Data set [1] is described as follows: Specificity of NicA2(N462H) compared to CYP2B6. In kind it is biochemical. Conditions: FIG. 27.
Data set [2] can be described thus: Activity of NicA2 mutants versus wild type NicA2. In kind it is biochemical. Conditions: for oxidation activity of NicA2 mutant: compared to wild type and other NicA2 mutants.

B1: NicA2(N462H) (protein, listed as Pseudomonas putida)
chain: MSDKTKTNEGFSRRSFIGSAAVVTAGVAGLGAIDAASATQKTNRASTVKGGFDYDVVVVGGGFAGATAARECGLQGYRTLLLEARSRLGGRTFTSRFAGQEIEFGGAWVHWLQPHVWAEMQRYGLGVVEDPLTNLDKTLIMYNDGSVESISPDEFGKNIRIAFEKLCHDAWEVFPRPHEPMFTERARELDKSSVLDRIKTLGLSRLQQAQINSYMALYAGETTDKFGLPGVLKLFACGGWNYDAFMDTETHYRIQGGTIGLINAMLTDSGAEVRMSVPVTAVEQVNGGVKIKTDDDEIITAGVVVMTVPLNTYKHIGFTPALSKGKQRFIKEGQLSKGAKLYVHVKQNLGRVFAFADEQQPLNWVQTHDYSDELGTILSITIARKETIDVNDRDAVTREVQKMFPGVEVLGTAAYDWTADPFSLGAWAAYGVGQLSRLKDLQAAEGRILFAGAETSNGWHAHIDGAVESGLRAGREVKQLLS
On to B1, for which the analytes degraded result in data set [1] was “degraded only nicotine”. Also, in data set [2] (FIG. 11D, versus WT), the “kobs, kred and Kd of NicA2 mutant” value was “improved kobs (how fast oxygen is entering) and kred rates (how fast FAD is reduced) and Kd (ligand binds more tightly)”. Further, the “current and sensitivity to nicotine of NicA2 mutant” value in data set [2] (compared to N462V, N462Y/W427Y, A107R) is given as “produced more current, was more sensitive to nicotine”. Also, the entries for the “oxidation activity of NicA2 mutant” value in data set [2] and in data set [2] (listed as N462H) were “highest oxidation activity” and “increased oxidative activity”, respectively.
